Experimental data as given in ChEMBL document CHEMBL2385058, “Progress and developments in tau aggregation inhibitors for Alzheimer disease” (J Med Chem, 2013).

Protein sequences, listed by entry. Tags and fused reporters are not part of them.
UniProt P05067, whole entry: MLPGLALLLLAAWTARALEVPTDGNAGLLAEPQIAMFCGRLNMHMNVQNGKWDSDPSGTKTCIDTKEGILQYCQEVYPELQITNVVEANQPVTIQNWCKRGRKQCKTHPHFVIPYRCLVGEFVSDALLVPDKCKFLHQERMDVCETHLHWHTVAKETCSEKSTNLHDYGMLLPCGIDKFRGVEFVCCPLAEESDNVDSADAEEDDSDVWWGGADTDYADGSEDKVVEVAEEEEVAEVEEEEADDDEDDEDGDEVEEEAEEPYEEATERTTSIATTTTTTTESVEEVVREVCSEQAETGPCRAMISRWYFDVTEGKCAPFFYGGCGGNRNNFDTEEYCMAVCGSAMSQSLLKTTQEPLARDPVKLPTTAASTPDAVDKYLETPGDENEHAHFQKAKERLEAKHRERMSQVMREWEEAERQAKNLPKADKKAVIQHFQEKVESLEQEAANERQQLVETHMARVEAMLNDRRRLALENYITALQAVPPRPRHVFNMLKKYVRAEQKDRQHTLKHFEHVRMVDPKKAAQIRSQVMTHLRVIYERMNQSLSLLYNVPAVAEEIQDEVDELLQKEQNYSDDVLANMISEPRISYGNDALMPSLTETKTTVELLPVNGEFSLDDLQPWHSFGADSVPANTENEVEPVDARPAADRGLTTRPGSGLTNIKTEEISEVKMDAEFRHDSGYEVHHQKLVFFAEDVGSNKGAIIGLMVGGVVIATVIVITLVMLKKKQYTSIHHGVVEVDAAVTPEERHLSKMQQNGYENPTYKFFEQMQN

Target: Amyloid-beta precursor protein (Homo sapiens, UniProt P05067)
Experiment: Binding affinity to amyloid beta (1 to 40) (unknown origin)

Work on `Cc1ccc2c(c1)sc(-c1ccc(N(C)C)cc1)[n+]2C` [THIOFLAVIN T] yielded a Ki of 890 nM.
